The text below walks through data of PubChem BioAssay AID651572 (The Scripps Research Institute Molecular Screening Center, 2012).

By UniProt entry, the sequences of proteins in these tests, tags left out. Residues count along the entry.
UniProt Q62848, 1-136 limits assumed: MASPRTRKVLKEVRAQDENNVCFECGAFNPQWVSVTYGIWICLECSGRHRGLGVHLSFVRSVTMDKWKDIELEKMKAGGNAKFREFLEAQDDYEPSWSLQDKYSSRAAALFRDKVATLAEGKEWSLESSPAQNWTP

The structures appear in SMILES notation. The list shows a part of the results, in another mix than the full data. Active and inactive are the calls of the source.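 The calls were made as follows: active = inhibition above a per-plate limit, mean inhibition of low control wells plus 3 SD (cut at about 25% in these data); inactive = the rest.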

For orientation: inhibition means the relative decrease from the control value, in per cent.

The assay deals with ADP-ribosylation factor GTPase-activating protein 1 (Rattus norvegicus) (UniProt Q62848). Briefly: inhibitors of rat ARFGAP1 GAP activity, primary screen, biochemical, fluorescence polarization, GDP tracer (AID 651572).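 Also: 0% = DMSO wells with enzyme and 100% = wells lacking Arfgap1.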 As to conditions: Arfgap1-stimulated ARF1 GTP hydrolysis, GDP FP detection; at 16.5 µM; hits give high values. A digest of the protocol:
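Assay system: purified rat His6-Arfgap1 residues 1-136 (GAP domain); Reagent: human Δ17 ARF1 bound to GTP; Dosing: 16.5 µM single point, 1.26% DMSO; Times: GTP hydrolysis reaction 2 h at 25 °C; Signal: FP, GDP Alexa 633 tracer displaced from anti-GDP antibody, 620/688 nm; Measure: % inhibition from polarization.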
(Polarisation of emitted light reports the rotation of a fluorescent probe.)
With `COc1cc(OC)cc(C(=O)NCC2(N3CCCCC3)CCCCC2)c1`, the inhibition is inactive: -18.2%.

In the case of `Cc1ccc(C(=O)NCC2(N3CCCCC3)CCCCC2)o1`, the inhibition was inactive: -2.19%.

Consider `Fc1ccccc1NC1CCN(Cc2ccccc2)CC1`, for which the inhibition was inactive: -1.94%.

Turning to `Cc1ccc(NC2(C#N)CCN(Cc3ccccc3)CC2)cc1`, the inhibition was inactive: -0.15%.

Take `Cc1ccccc1NC1(C#N)CCN(Cc2ccccc2)CC1`: the inhibition was inactive: -2.04%.

As to `CC(C)(C)n1nnnc1C(c1ccnc2ccccc12)N1CCC(n2c(=O)[nH]c3ccccc32)CC1` (configuration not stated), the inhibition is inactive: -14.7%.

As to `CCN1CCC(Nc2cccc(F)c2)CC1`, the inhibition was inactive: 2.41%.

As for `COc1ccc(C(c2nnnn2C2CCCCC2)N2CCC(n3c(=O)[nH]c4ccccc43)CC2)cc1` (configuration not stated), the inhibition is inactive: 18.1%.

Take `O=C(NCC1(N2CCCCC2)CCCCC1)c1ccco1`: the inhibition is inactive: -1.94%.

As to `Cn1c(=O)[nH]cc(N(CCCl)CCCl)c1=O`, the inhibition is inactive: -0.33%.

`CN(C)c1ccc(C(=O)NCC2(N3CCCCC3)CCCCC2)cc1`: the inhibition was inactive: -1.04%.

In the case of `CCOc1ncccc1C(=O)NCC1(N2CCOCC2)CCCCC1`, the inhibition was inactive: -10.6%.

Consider `CN1CCC(Nc2ccc(F)c(Cl)c2)CC1`, for which the inhibition was inactive: 8.84%.

`CC(C)(C)OC(=O)N1CCC(Nc2ccccc2)CC1`: the inhibition is inactive: 5.79%.

Turning to `O=C(O)C1(Nc2ccccc2)CCN(Cc2ccccc2)CC1`, the inhibition was inactive: -1.61%.

`NN(c1ccccc1)C1CCN(CCc2ccccc2)CC1`: the inhibition is inactive: -5.7%.

Turning to `CCCOc1ccc(C(=O)NCC2(N(C)C)CCCCC2)cc1`, the inhibition is inactive: 5.51%.

As to `O=c1[nH]c2ccccc2n1C1CCN(C(c2cc3ccccc3o2)c2nnnn2C2CCCC2)CC1` (configuration not stated), the inhibition is inactive: 1.69%.

`COc1cc(OC)cc(C(=O)NCC2(N3CCOCC3)CCCCC2)c1`: the inhibition was inactive: 1.18%.

As to `COc1cccc(C(c2nnnn2C2CCCC2)N2CCC(n3c(=O)[nH]c4ccccc43)CC2)c1OC` (configuration not stated), the inhibition was inactive: 7.47%.

Take `COc1cccc(C(=O)N(c2cc(C)cc(C)c2)C2CCN(C(=O)OC(C)(C)C)CC2)c1`: the inhibition is inactive: -3.38%.

As for `CCC(CO)(C(=O)OC1CN2CCC1CC2)c1ccccc1` (configuration not stated), the inhibition was inactive: -10.3%.

`CN1CCC(Nc2ccc(Cl)cc2)CC1`: the inhibition was inactive: -6.64%.

As for `COc1ccc(C(=O)NCC2(N3CCCCC3)CCCCC2)cc1`, the inhibition was inactive: -6.43%.

For the compound `CCC(c1nnnn1C1CCCC1)N1CCC(n2c(=O)[nH]c3ccccc32)CC1` (configuration not stated), the inhibition is inactive: -0.84%.

For the compound `CC(C)(C)OC(=O)N1CCC(N(C(=O)c2ccccc2)c2ccc(F)cc2)CC1`, the inhibition was inactive: 3.46%.

As to `COc1ccc(C(=O)NCC2(N3CCCCC3)CCCCC2)c(OC)c1OC`, the inhibition is inactive: -1.74%.

For the compound `O=C(NCC1(N2CCCCC2)CCCCC1)c1ccc(=O)[nH]c1`, the inhibition is inactive: 17.6%.

Turning to `CCCCn1nnnc1C(c1cccs1)N1CCC(n2c(=O)[nH]c3ccccc32)CC1` (configuration not stated), the inhibition was inactive: 4.51%.

Turning to `O=C(NCC1(N2CCCCC2)CCCCC1)c1cccs1`, the inhibition was inactive: -0.87%.

With `CCCCn1nnnc1C(CC)N1CCC(n2c(=O)[nH]c3ccccc32)CC1` (configuration not stated), the inhibition was inactive: 6.35%.

For `CSc1ccccc1C(=O)NCC1(N2CCCCC2)CCCCC1`, the inhibition is inactive: 3.36%.

Take `Cc1cccc(NC2(C#N)CCN(Cc3ccccc3)CC2)c1`: the inhibition is inactive: -17.6%.

Turning to `O=c1[nH]c2ccccc2n1C1CCN(C(c2ccccc2OC(F)(F)F)c2nnnn2C2CCCCC2)CC1` (configuration not stated), the inhibition was inactive: 3.15%.

With `O=C(NCC1(N2CCCCC2)CCCCC1)c1ccc(Cl)nc1`, the inhibition is inactive: 0.33%.

Take `Cc1cc(C)cc(N(C(=O)c2ccccc2)C2CCN(C(=O)OC(C)(C)C)CC2)c1`: the inhibition is inactive: -8.54%.

As to `O=C(NCC1(N2CCOCC2)CCCCC1)c1cc2ccccc2o1`, the inhibition is inactive: 0.27%.

With `O=C(OC1CN2CCC1CC2)C1c2ccccc2Oc2ccccc21` (configuration not stated), the inhibition is inactive: 2.22%.

Consider `O=c1[nH]c2ccccc2n1C1CCN(C(c2cc3ccccc3o2)c2nnnn2C2CCCCC2)CC1` (configuration not stated), for which the inhibition was inactive: 8.99%.

Consider `O=C(NCC1(N2CCCCC2)CCCCC1)c1ccc(Cl)s1`, for which the inhibition is inactive: 3.38%.

On to `N#CC1(Nc2ccccc2)CCN(Cc2ccccc2)CC1`, for which the inhibition was inactive: -4.49%.

On to `COc1ccc(Cl)cc1C(=O)NCC1(N2CCOCC2)CCCCC1`, for which the inhibition is inactive: -12.5%.

In the case of `CCOC(=O)N1CCC(Nc2ccc(OC)cc2)CC1`, the inhibition was inactive: 8.17%.

On to `CCCCn1nnnc1C(c1ccc(OC)cc1)N1CCC(n2c(=O)[nH]c3ccccc32)CC1` (configuration not stated), for which the inhibition was inactive: -3.25%.

Regarding `CC(C)(C)n1nnnc1C(c1ccccc1)N1CCC(n2c(=O)[nH]c3ccccc32)CC1` (configuration not stated), the inhibition is inactive: 12.5%.

Take `O=C1CCN(Cc2ccccc2)CC1`: the inhibition is inactive: 8.04%.

As for `CCOc1ccc(C)cc1CN(CCCl)CCCl`, the inhibition was inactive: 2.09%.

For the compound `O=C(NCC1(N2CCCCC2)CCCCC1)c1ccc(F)cc1`, the inhibition is inactive: -7%.

Consider `CCCCn1nnnc1C(c1cc2ccccc2o1)N1CCC(n2c(=O)[nH]c3ccccc32)CC1` (configuration not stated), for which the inhibition is inactive: -15.1%.

For the compound `O=P1(N(CCCl)CCCl)SCCCS1`, the inhibition was inactive: 10.8%.

Consider `CCCCOc1ccc(C(=O)NCC2(N3CCOCC3)CCCCC2)cc1`, for which the inhibition was inactive: 3.27%.

Turning to `COc1ccc(NC2CCN(CCc3ccccc3)CC2)c(OC)c1`, the inhibition is inactive: -10%.

As for `CCOC(=O)N1CCC(Nc2ccc(F)cc2)CC1`, the inhibition is inactive: -1.94%.

As to `O=c1[nH]c2ccccc2n1C1CCN(C(c2ccccc2)c2nnnn2C2CCCCC2)CC1` (configuration not stated), the inhibition was inactive: 18.2%.

On to `COc1cc(C(=O)NCC2(N(C)C)CCCCC2)ccc1OC(F)F`, for which the inhibition is inactive: 15.2%.

`CCOC(=O)N1CCC(Nc2cccc(C)c2)CC1`: the inhibition is inactive: -11.6%.

On to `O=c1[nH]c2ccccc2n1C1CCN(C(c2cccc3ccccc23)c2nnnn2C2CCCC2)CC1` (configuration not stated), for which the inhibition was inactive: -8.17%.

As for `CC(C)(C)n1nnnc1C(c1ccccc1OC(F)(F)F)N1CCC(n2c(=O)[nH]c3ccccc32)CC1` (configuration not stated), the inhibition is inactive: -0.1%.

Turning to `O=C(NCC1(N2CCCCC2)CCCCC1)c1ccc(OC(F)F)cc1`, the inhibition is inactive: 21.3%.

On to `CCN1CCC(Nc2ccc(Cl)cc2)CC1`, for which the inhibition was inactive: 4.03%.

Consider `N#CC1(Nc2ccccc2)CCN(CCc2ccccc2)CC1`, for which the inhibition is inactive: 12.2%.

For `O=c1[nH]c2ccccc2n1C1CCN(C(c2ccccc2OC(F)(F)F)c2nnnn2C2CCCC2)CC1` (configuration not stated), the inhibition was inactive: -3.49%.
